Assay results as given in patent US8999940B2, “Analogues of glucose-dependent insulinotropic polypeptide (GIP) modified at N-terminal” (Ipsen Pharma S.A.S., priority 2008, dated 2015).

What was measured:
[1] = Human plasma half-life assay; type: in vitro ADME; conditions: 37° C., LC-MS; for half-life at 0.1 mg/ml: read-out: Human Plasma T½ (converted)
Experimental: (§1) B. Human and Rat Plasma Half-Life Assay
(§2) GIP peptide (50 μl 1 mg/ml) was added to 450 μl plasma (human or rat), vertexed briefly and incubated at 37° C. 50 μl was removed at various times, like at 0, 1, 2, 3, 4, 8, 24, 32, 48, 56, 72 hours, mixed with 5 μl formic acid and 150 μL acetonitrile in a microcentrifuge tube, vertexed, and centrifuged for 10 minutes at 10 K rpm. The supernatant was transferred to an injection vial and analyzed by LC-MS. The LC-MS system consisted of an API4000 mass spectrometer with an ESI probe. Positive ion mode and full scan detection were used. HPLC separation was carried out on a Luna 3μ. C8 (2), 2×30 mm column with a gradient from 90% A to 90% B in 10 minutes at a flow rate of 0.3 ml/min. Buffer A was 1% formic acid in water and buffer B was 1% formic acid acetonitrile.

[2] = target: T1, human recombinant GIP receptor (Homo sapiens, UniProt P48546); test: In vitro hGIP receptor binding assay
T1 construct: expressed in transfected cells; host or cells: CHO-K1 clonal cells (membrane preparation)
T1 sequence (P48546 22-466): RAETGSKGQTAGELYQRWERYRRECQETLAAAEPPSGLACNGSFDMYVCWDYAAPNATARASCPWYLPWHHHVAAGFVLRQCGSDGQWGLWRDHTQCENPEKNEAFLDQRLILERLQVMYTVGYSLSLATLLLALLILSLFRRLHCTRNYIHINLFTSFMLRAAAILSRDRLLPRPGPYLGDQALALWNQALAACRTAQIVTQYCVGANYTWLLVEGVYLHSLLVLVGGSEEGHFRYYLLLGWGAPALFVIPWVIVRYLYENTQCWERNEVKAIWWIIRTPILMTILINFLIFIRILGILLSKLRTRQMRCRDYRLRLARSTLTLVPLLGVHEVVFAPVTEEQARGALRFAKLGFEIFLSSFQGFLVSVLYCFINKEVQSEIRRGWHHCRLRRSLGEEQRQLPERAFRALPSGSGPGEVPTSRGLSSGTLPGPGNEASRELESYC
Experimental: A. In Vitro hGIP Receptor Binding Assay […] The incubations were terminated by rapid filtration through GF/C filters (pre-soaked in 0.5% polyethylenimine) using a Brandel filtration manifold. Each tube and filter were then washed three times with 5-ml aliquots of ice-cold buffer. Specific binding was defined as the total radioligand bound minus that bound in the presence of 1000 nM GIP.

[3] = Rat plasma half-life assay; type: in vitro ADME; conditions: 37° C., LC-MS; for half-life at 0.1 mg/ml: read-out: Rat Plasma T½ (converted)
Experimental: as §1, §2

| SMILES | half-life at 0.1 mg/ml [1] | Ki [2] | half-life at 0.1 mg/ml [3] | half-life ([1]; read-out: Human Plasma T½) | half-life ([3]; read-out: Rat Plasma T½) |
| --- | --- | --- | --- | --- | --- |
| CCCC[C@H](NC(=O)C(C)(C)NC(=O)[C@@H](NC(=O)[C@H](CO)NC(=O)[C@H](Cc1ccc(O)cc1)NC(=O)[C@H](CC(=O)O)NC(=O)[C@H](CO)NC(=O)[C@@H](NC(=O)[C@H](Cc1ccccc1)NC(=O)[C@@H](NC(=O)CNC(=O)[C@H](CCC(=O)O)NC(=O)C(C)(C)NC(=O)[C@@H](N)Cc1cc(Br)c(O)c(Br)c1)[C@@H](C)O)[C@@H](C)CC)[C@@H](C)CC)C(=O)N[C@@H](CC(=O)O)C(=O)N[C@@H](CCCCN)C(=O)N[C@H](C(=O)N[C@@H](Cc1c[nH]cn1)C(=O)N[C@@H](CCC(N)=O)C(=O)N[C@@H](CCC(N)=O)C(=O)N[C@@H](CC(=O)O)C(=O)N[C@@H](Cc1ccccc1)C(=O)N[C@H](C(=O)N[C@@H](CC(N)=O)C(=O)N[C@@H](Cc1c[nH]c2ccccc12)C(=O)N[C@@H](CC(C)C)C(=O)N[C@@H](CC(C)C)C(=O)N[C@@H](C)C(=O)N[C@@H](CCC(N)=O)C(=O)N[C@@H](CCCCN)C(=O)NCC(=O)N[C@@H](CCCCN)C(=O)N[C@@H](CCCCN)C(=O)N[C@@H](CC(N)=O)C(=O)N[C@@H](CC(=O)O)C(=O)N[C@@H](Cc1c[nH]c2ccccc12)C(=O)N[C@@H](CCCCN)C(=O)N[C@@H](Cc1c[nH]cn1)C(=O)N[C@@H](CC(N)=O)C(=O)N[C@H](C(=O)N[C@H](C(=O)N[C@@H](CCC(N)=O)C(=O)O)[C@@H](C)O)[C@@H](C)CC)C(C)C)[C@@H](C)CC [Example 11, (3,5Br-Tyr^1, Aib^2, 13, Nle^14)hGIP(1-42)-OH] | 30 h | 4.26 nM | 11.8 h | – | – |
| CCCC[C@H](NC(=O)[C@H](C)NC(=O)[C@@H](NC(=O)C1(NC(=O)[C@H](Cc2ccc(O)cc2)NC(=O)[C@H](CC(=O)O)NC(=O)[C@H](CO)NC(=O)[C@@H](NC(=O)[C@H](Cc2ccccc2)NC(=O)[C@@H](NC(=O)CNC(=O)[C@H](CCC(=O)O)NC(=O)C(C)(C)NC(=O)[C@@H](N)Cc2ccc(O)c(Cl)c2)[C@@H](C)O)[C@@H](C)CC)CCCC1)[C@@H](C)CC)C(=O)N[C@@H](CC(=O)O)C(=O)N[C@@H](CCCCN)C(=O)N[C@H](C(=O)N[C@@H](Cc1c[nH]cn1)C(=O)N[C@@H](CCC(N)=O)C(=O)N[C@@H](CCC(N)=O)C(=O)N[C@@H](CC(=O)O)C(=O)N[C@@H](Cc1ccccc1)C(=O)N[C@H](C(=O)N[C@@H](CC(N)=O)C(=O)N[C@@H](Cc1c[nH]c2ccccc12)C(=O)N[C@@H](CC(C)C)C(=O)N[C@@H](CC(C)C)C(=O)N[C@@H](C)C(=O)N[C@@H](CCC(N)=O)C(=O)N[C@@H](CCCCN)C(=O)NCC(=O)N[C@@H](CCCCN)C(=O)N[C@@H](CCCCN)C(=O)N[C@@H](CC(N)=O)C(=O)N[C@@H](CC(=O)O)C(=O)N[C@@H](Cc1c[nH]c2ccccc12)C(=O)N[C@@H](CCCCN)C(=O)N[C@@H](Cc1c[nH]cn1)C(=O)N[C@@H](CC(N)=O)C(=O)N[C@H](C(=O)N[C@H](C(=O)N[C@@H](CCC(N)=O)C(=O)N[C@@H](CS)C(=O)O)[C@@H](C)O)[C@@H](C)CC)C(C)C)[C@@H](C)CC [Example 85, (3Cl-Tyr^1, Aib^2, A5c^11, Nle^14, Cys^43)hGIP(1-43)-OH] | 9.4 h | 0.83 nM | 11.5 h | – | – |
| CCCC[C@H](NC(=O)[C@H](C)NC(=O)[C@@H](NC(=O)C1(NC(=O)[C@H](Cc2ccc(O)cc2)NC(=O)[C@H](CC(=O)O)NC(=O)[C@H](CO)NC(=O)[C@@H](NC(=O)[C@H](Cc2ccccc2)NC(=O)[C@@H](NC(=O)CNC(=O)[C@H](CCC(=O)O)NC(=O)C(C)(C)NC(=O)[C@@H](N)Cc2ccc(O)c(Cl)c2)[C@@H](C)O)[C@@H](C)CC)CCCC1)[C@@H](C)CC)C(=O)N[C@@H](CC(=O)O)C(=O)N[C@@H](CCCCN)C(=O)N[C@H](C(=O)N[C@@H](Cc1c[nH]cn1)C(=O)N[C@@H](CCC(N)=O)C(=O)N[C@@H](CCC(N)=O)C(=O)N[C@@H](CC(=O)O)C(=O)N[C@@H](Cc1ccccc1)C(=O)N[C@H](C(=O)N[C@@H](CC(N)=O)C(=O)N[C@@H](Cc1c[nH]c2ccccc12)C(=O)N[C@@H](CC(C)C)C(=O)N[C@@H](CC(C)C)C(=O)N[C@@H](C)C(=O)N[C@@H](CCC(N)=O)C(=O)N[C@@H](CCCCN)C(=O)NCC(=O)N[C@@H](CCCCN)C(=O)N[C@@H](CCCCN)C(=O)N[C@@H](CC(N)=O)C(=O)N[C@@H](CC(=O)O)C(=O)N[C@@H](Cc1c[nH]c2ccccc12)C(=O)N[C@@H](CCCCN)C(=O)N[C@@H](Cc1c[nH]cn1)C(=O)N[C@@H](CC(N)=O)C(=O)N[C@H](C(=O)N[C@H](C(=O)N[C@@H](CCC(N)=O)C(=O)N[C@@H](Cc1c[nH]cn1)C(=O)O)[C@@H](C)O)[C@@H](C)CC)C(C)C)[C@@H](C)CC [Example 64, (3Cl-Tyr^1, Aib^2, A5c^11, Nle^14, His^43)hGIP(1-43)-OH] | – | 0.76 nM | – | – | – |
| CC[C@H](C)[C@H](NC(=O)[C@H](CCCCN)NC(=O)[C@H](CC(=O)O)NC(=O)[C@H](CCSC)NC(=O)[C@H](C)NC(=O)[C@@H](NC(=O)C1(NC(=O)[C@H](Cc2ccc(O)cc2)NC(=O)[C@H](CC(=O)O)NC(=O)[C@H](CO)NC(=O)[C@@H](NC(=O)[C@H](Cc2ccccc2)NC(=O)[C@@H](NC(=O)CNC(=O)[C@H](CCC(=O)O)NC(=O)CNC(=O)[C@@H](N)Cc2ccc(O)c(F)c2)[C@@H](C)O)[C@@H](C)CC)CCCC1)[C@@H](C)CC)C(=O)N[C@@H](Cc1c[nH]cn1)C(=O)N[C@@H](CCC(N)=O)C(=O)N[C@@H](CCC(N)=O)C(=O)N[C@@H](CC(=O)O)C(=O)N[C@@H](Cc1ccccc1)C(=O)N[C@H](C(=O)N[C@@H](CC(N)=O)C(=O)N[C@@H](Cc1c[nH]c2ccccc12)C(=O)N[C@@H](CC(C)C)C(=O)N[C@@H](CC(C)C)C(=O)N[C@@H](C)C(=O)N[C@@H](CCC(N)=O)C(=O)N[C@@H](CCCCN)C(=O)NCC(=O)N[C@@H](CCCCN)C(=O)N[C@@H](CCCCN)C(=O)N[C@@H](CC(N)=O)C(=O)N[C@@H](CC(=O)O)C(=O)N[C@@H](Cc1c[nH]c2ccccc12)C(=O)N[C@@H](CCCCN)C(=O)N[C@@H](Cc1c[nH]cn1)C(=O)N[C@@H](CC(N)=O)C(=O)NC1(C(=O)N[C@H](C(=O)N[C@@H](CCC(N)=O)C(=O)O)[C@@H](C)O)CCCC1)C(C)C [Example 39, (3F-Tyr^1, Gly^2, A5c^11, 41)hGIP(1-42)-OH] | – | – | – | > 72 h | > 72 h |
| CC[C@H](C)[C@H](NC(=O)[C@H](CCCCN)NC(=O)[C@H](CC(=O)O)NC(=O)[C@H](CCSC)NC(=O)[C@H](C)NC(=O)[C@@H](NC(=O)C1(NC(=O)[C@H](Cc2ccc(O)cc2)NC(=O)[C@H](CC(=O)O)NC(=O)[C@H](CO)NC(=O)[C@@H](NC(=O)[C@H](Cc2ccccc2)NC(=O)[C@@H](NC(=O)CNC(=O)[C@H](CCC(=O)O)NC(=O)CNC[C@@H](N)Cc2ccc(O)cc2)[C@@H](C)O)[C@@H](C)CC)CCCC1)[C@@H](C)CC)C(=O)N[C@@H](Cc1c[nH]cn1)C(=O)N[C@@H](CCC(N)=O)C(=O)N[C@@H](CCC(N)=O)C(=O)N[C@@H](CC(=O)O)C(=O)N[C@@H](Cc1ccccc1)C(=O)N[C@H](C(=O)N[C@@H](CC(N)=O)C(=O)N[C@@H](Cc1c[nH]c2ccccc12)C(=O)N[C@@H](CC(C)C)C(=O)N[C@@H](CC(C)C)C(=O)N[C@@H](C)C(=O)N[C@@H](CCC(N)=O)C(=O)N[C@@H](CCCCN)C(=O)NCC(=O)N[C@@H](CCCCN)C(=O)N[C@@H](CCCCN)C(=O)N[C@@H](CC(N)=O)C(=O)N[C@@H](CC(=O)O)C(=O)N[C@@H](Cc1c[nH]c2ccccc12)C(=O)N[C@@H](CCCCN)C(=O)N[C@@H](Cc1c[nH]cn1)C(=O)N[C@@H](CC(N)=O)C(=O)N[C@H](C(=O)NC1(C(=O)N[C@@H](CCC(N)=O)C(=O)O)CCCC1)[C@@H](C)CC)C(C)C [Example 40, [Tyr^1-Ψ-(CH2—NH)Gly^2, A5c^11, 41]hGIP(1-42)-OH] | > 48 h | 49 nM | 11.9 h | – | – |
